Experimental data reported in patent publication EP2905286A1, “Novel diazabicyclohydrocarbon-Pt complexes and the use thereof as pharmaceuticals” (Studiengesellschaft Kohle mbH, priority 2014, dated 2015).

Assay: Solubility observed during preparation
Assay type: physicochemical

Q: With “(Bispidin-9,9-diol)platinum(II)(oxalate) [compound 7]” as the substance, how does the “solubility in DMF” value (DMF) read?
A: Its value is “even less so”.

Q: What about the solubility in water (water) of the same substance?
A: The solubility in water was “dissolves only poorly”.
